One assay has as its system thrombin. Put plainly: Response of products to thrombin in platelet-free plasma (light transmission aggregometer). The assay is classed as biochemical, human. The following applies: suboptimal thrombin, increase in light transmission over 20 minutes, mean ± sd of 4 experiments. The source says: To determine whether the fibrinogen bound to the peptide on the agent of the invention can still be cleaved by thrombin to form fibrin, an agent of the invention can be treated with human thrombin. Cross-linking of the agent of the invention via fibrin-fibrin bridging can be tested in a modified aggregation assay, for example, a protocol based on Levi et al, 1999, Nature Medicine, […], 107-111. The method that we used is reported below.
1. Method for assessing the response of products to thrombin in platelet-free plasma.
The assay was performed using a light transmission aggregometer (we used a PAP4 aggregometer (BioData Corporation)). Thrombin was added to a mixture of plasma (without platelets) and product. […] Aggregation of the microspheres causes an increase in light transmission, which can be recorded as percentage “aggregation” relative to plasma alone.
(i) The count of the products, reference batch or controls was adjusted to 100×10^3/ml. The microspheres can be counted using a particle counter such as a Flow cytometer (e.g. Beckman Coulter MCL-XL) or Coulter Z2. […]
(iv) 50 μl of each of the test preparations or product, reference batch or control microspheres were added to 350 μl of platelet-free plasma. The increase in light transmission over 20 minutes in the presence and absence of suboptimal thrombin (determined as described above) was measured.

A further assay has as its target fibrinogen (human) (UniProt P02671). Put plainly: cell-based or functional assay.

For the substance “Product 2: albumin microspheres with peptide GPRPGGGGGGC bound, without fibrinogen”, the “Percentage aggregation in the presence of thrombin” value with thrombin is 17.5 ± 14.1%; with thrombin (listed as 0 mg/ml), 17.5 ± 14.25%.

Take “thrombin (from UniProt P00734 328-622) (enzyme)”: in the assay with fibrinogen (human), the Percentage aggregation (+thrombin); Reference batch worked out at 20.5%, the Percentage aggregation (+thrombin); … microspheres incubated with 0 mg/ml fibrinogen is 17.5%, the Percentage aggregation (+thrombin); … microspheres incubated with 0.01 mg/ml fibrinogen came out at 31.2% and the Percentage aggregation (+thrombin); … microspheres incubated with 0.1 mg/ml fibrinogen stood at 90.8%. Further, in the assay with fibrinogen (human), the Percentage aggregation (+thrombin); … microspheres incubated with 1 mg/ml fibrinogen is 87.2%, the Percentage aggregation in the presence of thrombin; Product 1 (fibrinogen bound via …) in platelet-free plasma stood at 90%, the Percentage aggregation in the presence of thrombin; Product 2 (peptide microspheres without preloaded fibrinogen) in platelet-free plasma came to 17.5% and the Percentage aggregation in the presence of thrombin; Reference batch (fibrinogen directly on microspheres) in platelet-free plasma turned out to be 20.5%.

(Values after patent publication US20080064628A1, “Fibrinogen Targetting Microparticles For Promoting Haemostasis” (Haemostatix Limited, priority 2003, published 2008).)
